Tested on: human MC1R variants (V60L, V92M, R151C, R163Q)
Assay: Cyclic AMP assay in HEK293 cells stably expressing hMC1R variants
Details: response of V60L and R151C mutants weaker than wild type

Compound: COC[C@H]1CN(C(=O)[C@]2(F)CN(C3CCCC3)C[C@H]2c2ccc(OC)cc2)C[C@@H]1c1ccc(C(F)(F)F)cc1N1CCC(C(=O)O)CC1 [MT‐7117, dersimelagon]
- Intracellular cAMP in cells with variants of MC1R and wild type: increased cAMP in a concentration‐dependent manner

From publication PMC9060023 (Skin Health and Disease, 2021)
